These results are taken from article PMC7093416, “Selective USP7 inhibition elicits cancer cell killing through a p53-dependent mechanism” (Scientific Reports, 2020).

The chains behind the UniProt entries cited, without tags or fusion partners.
UniProt Q93009, whole entry: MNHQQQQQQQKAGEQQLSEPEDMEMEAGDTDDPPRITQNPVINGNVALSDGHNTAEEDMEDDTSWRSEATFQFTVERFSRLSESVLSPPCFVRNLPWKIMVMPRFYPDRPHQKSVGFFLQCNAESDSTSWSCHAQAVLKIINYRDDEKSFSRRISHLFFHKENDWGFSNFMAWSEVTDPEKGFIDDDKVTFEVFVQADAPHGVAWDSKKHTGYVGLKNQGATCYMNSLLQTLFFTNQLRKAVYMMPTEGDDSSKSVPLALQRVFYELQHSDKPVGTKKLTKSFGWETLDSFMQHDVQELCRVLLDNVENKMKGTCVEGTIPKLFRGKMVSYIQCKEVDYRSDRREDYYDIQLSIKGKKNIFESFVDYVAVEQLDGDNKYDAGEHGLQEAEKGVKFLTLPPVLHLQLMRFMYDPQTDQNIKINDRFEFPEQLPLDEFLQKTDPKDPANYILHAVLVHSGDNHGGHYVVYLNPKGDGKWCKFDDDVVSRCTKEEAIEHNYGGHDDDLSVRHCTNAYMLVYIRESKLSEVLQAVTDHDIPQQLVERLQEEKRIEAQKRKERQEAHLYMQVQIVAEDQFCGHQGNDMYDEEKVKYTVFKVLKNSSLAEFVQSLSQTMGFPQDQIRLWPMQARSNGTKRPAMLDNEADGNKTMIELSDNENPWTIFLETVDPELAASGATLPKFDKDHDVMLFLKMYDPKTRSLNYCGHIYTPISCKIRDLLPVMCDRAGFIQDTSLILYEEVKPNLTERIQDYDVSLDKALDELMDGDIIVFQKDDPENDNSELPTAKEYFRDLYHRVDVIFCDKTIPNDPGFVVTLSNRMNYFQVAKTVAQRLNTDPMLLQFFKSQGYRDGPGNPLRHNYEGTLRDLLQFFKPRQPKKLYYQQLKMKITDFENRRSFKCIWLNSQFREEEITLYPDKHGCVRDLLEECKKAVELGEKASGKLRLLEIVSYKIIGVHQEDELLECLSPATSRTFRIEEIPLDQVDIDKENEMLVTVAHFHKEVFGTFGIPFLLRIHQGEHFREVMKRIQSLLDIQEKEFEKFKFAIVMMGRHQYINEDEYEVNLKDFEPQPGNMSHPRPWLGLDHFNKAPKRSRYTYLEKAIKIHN

The target in the assay is full-length USP7 (Homo sapiens, UniProt Q93009). In words: Ub-AMC enzymatic assay, full-length USP7, 6 h pre-incubation.

With `C[C@@H]1NC(=O)N[C@@H]1CCCCCC(=O)NCCOCCOCCOCCC(=O)N1CCN(CC(=O)Nc2ccc3c(=O)n(CC4(O)CCN(C(=O)[C@@H](CCCNC(=O)c5ccc6c(Cl)c7c(nc6c5)CCCC7)Cc5ccccc5)CC4)cnc3c2)CC1`, the USP7 inhibitory activity entry was “retained USP7 inhibitory activity”.
